Reference: article PMC7203682, “Pharmacological Inhibition of MALT1 Protease Leads to a Progressive IPEX-Like Pathology” (Frontiers in Immunology, 2020)

Tested on: female Lewis rat
Details: in vivo

Structure (SMILES): CO[C@@H](C)c1c(NC(=O)Nc2ccnc(C(F)(F)F)c2)cnc2cc(Cl)nn12 [MLT-943]
- histological scores: significantly reduced
- paw swelling: significantly reduced
